## Yeast mating assay 1: variants of the scFv Ab-14

Target: peptide PDVDLGDISGINAS, taken from heptad repeat 2 (HR2) of SARS-CoV-2 spike.

Parent scFv Ab-14: VH joined to VL by a 15-residue (Gly4Ser)3 linker. Changes lie in the light chain CDRs alone.
VH: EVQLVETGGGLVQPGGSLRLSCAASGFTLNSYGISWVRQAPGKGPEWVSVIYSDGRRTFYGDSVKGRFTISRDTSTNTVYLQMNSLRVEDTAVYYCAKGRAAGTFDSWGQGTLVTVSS
VL: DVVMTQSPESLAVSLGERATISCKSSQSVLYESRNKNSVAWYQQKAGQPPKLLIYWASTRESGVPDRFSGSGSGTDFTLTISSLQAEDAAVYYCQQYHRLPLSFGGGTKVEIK

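The starting antibody came from a phage panning campaign against this peptide. The library (AAYL50) carries one to three amino acid substitutions per variant, with no insertions or deletions. AlphaSeq pools MATa yeast showing the antibodies with MATalpha yeast showing the peptide. After mating in shaken culture at 30 °C for 16 h, diploids were selected and their barcode pairs sequenced. Each replicate has its own calibration line, from reference interactions of the BCL2 family. The assay was run in three technical replicates.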

Substitutions are numbered in sequence along the VL above, starting at 1 (not Kabat).
Values are log10 of the apparent Kd in nM; lower means stronger binding.
Averages over replicates are reported, and they cover detected replicates only.
A pair that was not seen in that replicate is written "n.d."; this usually means weak binding, but a binder can also be missed.
Background: pairings of library AAYL50 with three empty control strains gave a value in 18% of cases (median 4.19, 5th percentile 2.99). Values in that range, when seen in few replicates, are hard to tell from nonspecific mating. The control count says in how many pairings with the empty strains this scFv gave a signal, with their mean in brackets.
For reference, the parent read 0.65 as the reference entry and 1.68 as a member of this library.

{"changes": "W56F/A57N/L102E", "log10 Kd, replicates": "n.d. n.d. 4.36", "mean log10 Kd (nM)": "4.36", "signal with controls": "5/9 (4.16)"}
{"changes": "L30E/P101T/L102G", "log10 Kd, replicates": "0.79 0.82 0.66", "mean log10 Kd (nM)": "0.76", "signal with controls": "0/9"}
{"changes": "N35P/S62Q/L100C", "log10 Kd, replicates": "3.37 3.58 3.74", "mean log10 Kd (nM)": "3.56", "signal with controls": "1/9 (3.22)"}
{"changes": "S28G/V29A/Y97E", "log10 Kd, replicates": "n.d. n.d. n.d.", "mean log10 Kd (nM)": "n.d.", "signal with controls": "1/9 (2.97)"}
{"changes": "Y31A/V39F/E61C", "log10 Kd, replicates": "n.d. n.d. n.d.", "mean log10 Kd (nM)": "n.d.", "signal with controls": "0/9"}
{"changes": "N37L/W56N/L100F", "log10 Kd, replicates": "1.74 1.82 1.13", "mean log10 Kd (nM)": "1.56", "signal with controls": "1/9 (4.33)"}
{"changes": "S25M/S38N/T59G", "log10 Kd, replicates": "2.37 2.37 2.65", "mean log10 Kd (nM)": "2.46", "signal with controls": "2/9 (4.87)"}
{"changes": "S38H/R60Y/S62M", "log10 Kd, replicates": "n.d. 4.16 4.30", "mean log10 Kd (nM)": "4.23", "signal with controls": "4/9 (4.43)"}
{"changes": "E32M/S33Y/S62G", "log10 Kd, replicates": "4.19 n.d. 5.60", "mean log10 Kd (nM)": "4.89", "signal with controls": "2/9 (4.68)"}
{"changes": "R34A/R60C", "log10 Kd, replicates": "2.38 1.99 2.35", "mean log10 Kd (nM)": "2.24", "signal with controls": "2/9 (4.10)"}
{"changes": "S28A", "log10 Kd, replicates": "1.86 1.74 1.80", "mean log10 Kd (nM)": "1.80", "signal with controls": "4/9 (4.33)"}
{"changes": "K36W/S38I/R60Y", "log10 Kd, replicates": "n.d. n.d. n.d.", "mean log10 Kd (nM)": "n.d.", "signal with controls": "0/9"}
{"changes": "N35T/S58P/S103Y", "log10 Kd, replicates": "5.78 3.42 n.d.", "mean log10 Kd (nM)": "4.60", "signal with controls": "5/9 (4.60)"}
{"changes": "R34C/S58F/R60G", "log10 Kd, replicates": "2.78 2.24 n.d.", "mean log10 Kd (nM)": "2.51", "signal with controls": "0/9"}
{"changes": "N35W/T59V/H98I", "log10 Kd, replicates": "2.53 2.19 3.06", "mean log10 Kd (nM)": "2.59", "signal with controls": "0/9"}
{"changes": "S38A/A40G/Q95C", "log10 Kd, replicates": "n.d. n.d. n.d.", "mean log10 Kd (nM)": "n.d.", "signal with controls": "5/9 (4.44)"}
{"changes": "L30N/R34K/R99G", "log10 Kd, replicates": "3.03 2.87 3.56", "mean log10 Kd (nM)": "3.16", "signal with controls": "3/9 (4.10)"}
{"changes": "S33L/W56M/S58F", "log10 Kd, replicates": "n.d. n.d. 3.44", "mean log10 Kd (nM)": "3.44", "signal with controls": "3/9 (4.27)"}
{"changes": "Y31R/S38G/L100P", "log10 Kd, replicates": "n.d. n.d. n.d.", "mean log10 Kd (nM)": "n.d.", "signal with controls": "1/9 (3.48)"}
{"changes": "E32S/R60Y/E61C", "log10 Kd, replicates": "n.d. n.d. n.d.", "mean log10 Kd (nM)": "n.d.", "signal with controls": "1/9 (5.01)"}

The opening 3 entries, copied out:

| changes | log10 Kd, replicates | mean log10 Kd (nM) | signal with controls |
|---|---|---|---|
| W56F/A57N/L102E | n.d. n.d. 4.36 | 4.36 | 5/9 (4.16) |
| L30E/P101T/L102G | 0.79 0.82 0.66 | 0.76 | 0/9 |
| N35P/S62Q/L100C | 3.37 3.58 3.74 | 3.56 | 1/9 (3.22) |

Data: MIT Lincoln Laboratory AlphaSeq set, Engelhart et al. 2022, doi:10.1038/s41597-022-01779-4, as distributed in FLAb.